## Ab-14 heavy chain CDR variants: yeast mating affinities

Antigen: PDVDLGDISGINAS, a 14-residue peptide of the SARS-CoV-2 spike HR2 region.

The variants keep the light chain, the linker and the frameworks of Ab-14 (scFv order VH, the linker GGGGSGGGGSGGGGS, VL).
VH: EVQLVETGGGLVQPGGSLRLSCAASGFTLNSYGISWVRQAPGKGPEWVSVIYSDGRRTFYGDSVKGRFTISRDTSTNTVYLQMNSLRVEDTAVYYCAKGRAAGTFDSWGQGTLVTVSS
VL: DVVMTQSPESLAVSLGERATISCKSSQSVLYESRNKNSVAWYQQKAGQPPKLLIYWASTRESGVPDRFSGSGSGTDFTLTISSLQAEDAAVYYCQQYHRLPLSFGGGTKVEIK

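Phage display of a naive human antibody library on the peptide gave the parent. The variants were designed computationally from a first round of random CDR variants and then made and measured. Their group label is 14H_GPLM_Gibbs (GPLM: also part of the Gaussian process libraries; Gibbs: Gibbs sampling; a sequence that several methods proposed may carry one label only). In AlphaSeq, yeast of one mating type display the scFv and yeast of the other type display the target. Mating (16 h, 30 °C) was followed by selection of diploids and sequencing of their barcodes. Each replicate has its own calibration line, from reference interactions of the BCL2 family. Each pool was mated in six replicate cultures.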

Each variant is given by its three heavy chain CDRs, as the data file delimits them; those of the parent are GFTLNSYGIS, VIYSDGRRTFYGDSVK, GRAAGTFDS. The read-out is the apparent dissociation constant on a log10 scale (nM): the lower, the stronger. A pair that was not seen in that replicate is written "n.d."; this usually means weak binding, but a binder can also be missed.

| # | CDR-H1 | CDR-H2 | CDR-H3 | replicates, log10 nM | control signals |
|---|---|---|---|---|---|
| 1 | GFELNSYGIS | VIYSDGQRTFYADSVK | GRTAGTFDS | 0.09 / -0.32 / -0.11 / -0.11 / -0.19 / -0.16 | 0 of 18 |
| 2 | GFTLNSYGIS | VIYSDGKRTFYGDSVK | GRVAGTFDF | n.d. / n.d. / n.d. / n.d. / n.d. / n.d. | 0 of 18 |
| 3 | GFDLNSYGIS | VIYSDGRRTFYSDSVK | GRVAGTFDS | -0.81 / -0.36 / -0.90 / -1.20 / -0.45 / -1.38 | 0 of 18 |
| 4 | GFDLNSYGIS | VIYSDGRRTFYADHVK | GRTAGTFDS | 0.72 / 1.52 / 1.80 / 1.18 / 0.58 / 1.00 | 0 of 18 |
| 5 | GFQLNSYGIS | VIYSDGRRTFYADSVK | GREAGTFDT | 0.76 / 0.49 / 0.35 / 0.00 / -0.15 / 0.41 | 2 of 18 (1.51) |
| 6 | GFSLNSYGIS | VIYSDGRRTFYVDSVK | GNAAGTFDN | 1.32 / 0.74 / 0.86 / 0.36 / 0.73 / 0.92 | 1 of 18 (1.32) |
| 7 | GFELNSYGIS | VIYSDGRRTFYTDSVK | GNAAGTFDS | 0.81 / -0.04 / 0.28 / 0.27 / 0.26 / 0.14 | 0 of 18 |
| 8 | GFELNSYGIS | VIYSDGRRTFYIDSVK | GQVAGTFDS | 1.11 / 0.78 / 0.98 / 0.86 / 1.17 / 0.94 | 0 of 18 |
| 9 | GFTLNSYGIS | VIYSDGRRTFYADSVK | GKAAGTFDT | 1.45 / 1.49 / 1.07 / 1.25 / 0.75 / 1.11 | 1 of 18 (2.17) |
| 10 | GFPLNEYGIS | VIYSDGRRTFYGDAVK | GRTAGTFDS | 0.05 / 0.17 / 0.15 / 0.67 / -0.20 / -0.05 | 0 of 18 |
| 11 | GFTLNSYGIS | VIYSDGRRTAYGDSVK | GQAAGTFDS | 1.02 / 0.80 / 0.96 / 0.94 / 1.31 / 1.13 | 0 of 18 |
| 12 | GFTLNSYGIS | VIYSDGRRTFYSDSVK | GQTAGTFDL | 1.19 / 0.53 / 0.62 / 0.55 / 0.61 / 0.96 | 0 of 18 |
| 13 | GFNLNSYGIS | VIYSDGRRTFYHDSVK | GEAAGTFDS | 0.08 / 0.36 / 0.47 / 1.28 / 0.28 / 0.35 | 1 of 18 (1.35) |
| 14 | GFGLNSYGIS | VIYSDGRRTFYGDSVK | GWTAGTFDS | 1.05 / 0.91 / n.d. / n.d. / n.d. / 0.84 | 0 of 18 |
| 15 | GFTLNSYGIS | VIYSDGRRTFYADSVK | GWVAGTFDT | -0.06 / 0.47 / 0.61 / 0.99 / 0.46 / 0.72 | 1 of 18 (0.88) |
| 16 | GFELNMYGIS | VIYSDGRRTFYGDSVK | GREAGTFDS | 0.98 / 2.05 / 1.34 / 0.22 / 0.85 / 1.92 | 0 of 18 |
| 17 | GFTLESYGIS | VIYSDGRRTFYGDSVK | GQVAGTFDS | 1.01 / 1.14 / 2.23 / 0.78 / 1.28 / 1.29 | 1 of 18 (2.44) |
| 18 | GFTLNSYGIS | VIYSDGKRTFYGDDVK | GRTAGTFDS | n.d. / n.d. / n.d. / 1.13 / n.d. / 1.24 | 0 of 18 |
| 19 | GFDLNSYGIS | VIYSDGRRTFYCDSVK | GRQAGTFDS | 1.16 / 1.48 / 1.23 / 1.08 / 0.85 / 1.03 | 0 of 18 |
| 20 | GFDLNSYGIS | VIYSDGRRTFYGDSVK | GKAAGTFDK | n.d. / 0.20 / 1.41 / 0.28 / 0.68 / 0.21 | 0 of 18 |
| 21 | GFELNSYGIS | VIYSDGQRTFYGDSVK | GRTAGTFDS | 1.16 / 0.54 / 0.80 / 0.55 / 1.03 / 0.65 | 2 of 18 (3.44) |
| 22 | GFSLNSYGIS | VIYSDGRRTFYGDSVK | GQEAGTFDT | -0.05 / -0.21 / -0.28 / -0.32 / -0.17 / -0.07 | 0 of 18 |
| 23 | GFTLNSYGIS | VIYSDGRRTFYGDDVK | GKTAGTFDS | 1.31 / 1.03 / 1.43 / -0.14 / n.d. / 1.27 | 1 of 18 (1.32) |
| 24 | GFSLNSYGIS | VIYSDGRRTFYIDSVK | GHVAGTFDS | 1.01 / 1.36 / 0.42 / 0.86 / 1.52 / 0.54 | 0 of 18 |
| 25 | GFTLNSYGIS | VIYSDGRRTFYADSVK | GHEAGTFDS | 0.53 / 0.75 / 0.26 / 0.44 / 1.15 / 0.81 | 0 of 18 |
| 26 | GFELNSYGIS | VIYSDGRRTFYGDDVK | GVNAGTFDS | 1.75 / 1.14 / n.d. / 1.43 / 2.36 / 1.53 | 1 of 18 (1.04) |
| 27 | GFNLNSYGIS | VIYSDGRRTFYGDSVK | GKEAGTFDS | 0.65 / 1.72 / -0.11 / 0.47 / -0.16 / 0.24 | 0 of 18 |
| 28 | GFSLNEYGIS | VIYSDGRRTFYGDSVK | GQAAGTFDV | 0.29 / -0.26 / -0.19 / -0.37 / 0.48 / 0.55 | 1 of 18 (1.06) |
| 29 | GFDLNSYGIS | VIYSDGRRTFYQDSVK | GEAAGTFDS | 0.85 / 0.43 / 0.81 / 0.86 / 0.53 / 0.74 | 3 of 18 (2.58) |
| 30 | GFSLNSYGIS | VIYSDGRRTFYGDDVK | GRQAGTFDS | 0.68 / 0.47 / 0.37 / 0.27 / 0.32 / 0.42 | 1 of 18 (1.96) |
| 31 | GFSLNSYGIS | VIYSDGRRTFYVDSVK | GREAGTFDT | 0.87 / 0.16 / 0.38 / 0.61 / 0.24 / 0.60 | 0 of 18 |

Repeated from above, the 2 best binders with a signal in all replicates:

| CDR-H1 | CDR-H2 | CDR-H3 | replicates, log10 nM | control signals |
|---|---|---|---|---|
| GFDLNSYGIS | VIYSDGRRTFYSDSVK | GRVAGTFDS | -0.81 / -0.36 / -0.90 / -1.20 / -0.45 / -1.38 | 0 of 18 |
| GFSLNSYGIS | VIYSDGRRTFYGDSVK | GQEAGTFDT | -0.05 / -0.21 / -0.28 / -0.32 / -0.17 / -0.07 | 0 of 18 |

The authors' rule: three or more of the six replicates give a measured affinity, fewer mean a poor binder. The parent sequence was in this pool as ten entries: three were never detected, three once, and four in most replicates, with averages from 0.34 to 2.37. Three control strains display no target. For all heavy chain designs, 1% of the pairings with them gave a signal, with a median of 2.08 and one signal in twenty below 0.84, so weak values seen in few replicates may be background. The control count says in how many pairings with the empty strains this scFv gave a signal, with their mean in brackets. Values of this round are not directly comparable with the first-round values of the same sequences.

From the AlphaSeq antibody data of Li et al. 2023 (doi:10.1038/s41467-023-39022-2), copy in the FLAb collection.